According to patent publication US20180214395A1 (priority 2017, published 2018):

Experiment: Single ascending dose (SAD) study in healthy volunteers: pharmacokinetics of d-methadone
Details: both, human, in vivo, 5 mg, SAD 5 mg, mean

SMILES: CCC(=O)C(C[C@H](C)N(C)C)(c1ccccc1)c1ccccc1 [d-methadone]
- Cmax: 53.3 ng/mL
